From paper PMC10881971, “Hepa-ToxMOA: a pathway-screening method for evaluating cellular stress and hepatic metabolic-dependent toxicity of natural products” (Scientific Reports, 2024)
Where two headings read alike, the source gives them in different places.

Tests used:
P53 = settings: regardless of metabolic activation (S9- and S9+), 24 h
Nrf2 = settings: 24 h
[1] = test system: AP1, P53, Nrf2, and NF-κB; settings: four cell lines, 24 h, with or without 1% rat liver S9; maximum 12 points

Substance: 4-Demethylepipodophyllotoxin
- GFP expression, P53 cell line (P53): increased
- GFP expression, Nrf2 cell line (Nrf2; under metabolic activation (S9+, 1% rat liver S9)): specifically activated
- GFP expression, Nrf2 cell line (Nrf2; without metabolic activation (S9-)): no change
- sum of activity scores compared between metabolic activation and non-metabolic conditions [1]: consistently active regardless of metabolic activation
